1 compound from PubChem BioAssay AID2291 (The Scripps Research Institute Molecular Screening Center, 2010) can be followed below.

Sequences of proteins named here, by UniProt entry; tags and fusion partners are left off.
UniProt Q9Y570, whole entry: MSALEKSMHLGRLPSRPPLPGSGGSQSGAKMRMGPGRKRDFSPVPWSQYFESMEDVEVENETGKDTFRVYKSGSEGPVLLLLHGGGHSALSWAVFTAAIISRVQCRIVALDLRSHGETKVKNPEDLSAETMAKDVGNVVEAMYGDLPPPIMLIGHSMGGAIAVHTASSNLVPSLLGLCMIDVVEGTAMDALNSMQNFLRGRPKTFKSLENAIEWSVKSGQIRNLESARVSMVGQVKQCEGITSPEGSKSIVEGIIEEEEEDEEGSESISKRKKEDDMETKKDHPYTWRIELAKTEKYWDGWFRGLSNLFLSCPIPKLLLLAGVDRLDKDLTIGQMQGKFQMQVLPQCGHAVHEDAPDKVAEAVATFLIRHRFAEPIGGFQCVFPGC

The list shows a part of the results, in another mix than the full data. Calls of active or inactive are those of the source. Rule as the data show it: active = inhibition above about 30%; inactive = the rest.

The target in this test is Protein phosphatase methylesterase 1 (Homo sapiens) (UniProt Q9Y570). Description: Maybridge compound blocking human PME-1 (AID 2291). The conditions noted are these: recombinant PME-1, FP-Rh probe fluorescence polarization; at 9 µM; active compounds read high.
Turning to `Cc1ccccc1NC1CC(C)(C)NC(C)(C)C1`, the inhibition was inactive: 3.98%.
